# Data as given in PMC9974930 (Journal of medicinal chemistry, 2023).
# Protein sequences, listed by entry. Tags and fused reporters are not part of them.
# UniProt P34913, whole entry: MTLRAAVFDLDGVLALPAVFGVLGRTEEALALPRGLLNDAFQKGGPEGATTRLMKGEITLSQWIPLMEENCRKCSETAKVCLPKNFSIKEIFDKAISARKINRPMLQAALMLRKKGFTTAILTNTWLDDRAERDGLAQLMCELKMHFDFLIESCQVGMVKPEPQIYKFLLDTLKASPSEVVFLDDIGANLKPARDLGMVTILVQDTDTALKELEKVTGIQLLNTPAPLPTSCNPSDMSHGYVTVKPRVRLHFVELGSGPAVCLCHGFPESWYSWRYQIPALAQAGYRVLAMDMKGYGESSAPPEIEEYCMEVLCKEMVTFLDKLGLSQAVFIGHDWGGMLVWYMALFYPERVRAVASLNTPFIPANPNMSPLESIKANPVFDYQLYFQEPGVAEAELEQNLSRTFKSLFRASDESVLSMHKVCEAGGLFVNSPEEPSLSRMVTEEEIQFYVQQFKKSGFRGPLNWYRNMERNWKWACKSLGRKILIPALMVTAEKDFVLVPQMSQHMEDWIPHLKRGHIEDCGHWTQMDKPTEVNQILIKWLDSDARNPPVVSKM
# Molecular target: recombinant human sEH (HsEH) (Homo sapiens, UniProt P34913)
# Type: biochemical
# Details: LLE = pIC50-cLogP
smiles,measurement,value
"CCC(C)C(=O)N1CCC(CC(=O)N2CCCN(C(=O)c3ccc(NC(=O)NC45CC6CC(C)(CC(C)(C6)C4)C5)c(F)c3)CC2)CC1 [H2, 1-((1r,3R,5S,7r)-3,5-Dimethyladamantan-1-yl)-3-(2-fluoro-4-(4-(2-(1-(2-methylbutanoyl)piperidin-4-yl)acetyl)-1,4-diazepane-1-carbonyl)phenyl)urea]",LLE (ligand lipophilicity efficiency),4.883
